The numbers were not newly measured in patent US20160000737A1, “TREATMENT OF PETS WITH SIRTUIN ACTIVATORS” (NUSIRT SCIENCES, INC., priority 2013, published 2016), which cites them from elsewhere.

The conditions of the series: directly excreted in the urine; cited from earlier work.

Turning to `CN(C)C(=N)N=C(N)N` [Metformin], the metabolism/excretion result is “not metabolised”.
